Patent US20180057595A1 (CELLDEX THERAPEUTICS, published 2018)

Tests used:
[1] = molecular target: T1, human MET, cell-surface expressed (human, UniProt P08581 25-1390); experiment: FACS on A549 cells, cell surface MET
T1 construct: whole, on cells; Used for all assays on cells that carry wild-type human MET; the cell line is named under assay or readout; also called c-Met; hMET

[2] = molecular target: T2, human MET-ECD with a His tag (MET-ECD-His) (human, UniProt P08581 25-932); experiment: ELISA on recombinant MET-ECD
T2 construct: The ELISA sections speak of MET-ECD, MET-ECD-His or His-tagged MET extracellular domain; also called hu-MET-ECD; human cMET ECD

[3] = molecular target: T2, human MET-ECD with a His tag …; experiment: ELISA, immobilised His-tagged MET ECD; displacement of biotinylated HGF (0.3 nM)
[4] = molecular target: T1, human MET, cell-surface expressed; experiment: FACS competition on A549 cells; competitor Alexa-647-labelled Ab235
[5] = molecular target: T2, human MET-ECD with a His tag …; experiment: ELISA on coated human MET-ECD
Protocol: To measure antibody binding by ELISA, 10 μg of human, murine or chimeric MET-ECD was coated onto 96-well plates (Costar). Serial dilutions of antibodies were added to the plates and incubated at room temperature for 1 hr prior to the addition of HRP-conjugated secondary antibody. Luminescence was measured with BioTek SYNERGY™ HT plate reader, and binding EC₅₀ values were determined using […] PRISM® software.

[6] = molecular target: T1, human MET, cell-surface expressed; experiment: cell-based or functional assay
[7] = molecular target: MET without the 47 amino acids encoded by exon 14 (H596 cells) (human, UniProt P08581 25-1390); experiment: cell-based or functional assay

B1: Ab239 (antibody, rat IgG2a, V domains shown)
VH: EVQLVESGGGLVQPGRSLKLSCAASGFSFTDCYMAWVRQAPTKGLEWVASISSDGGGTYYRDSVKGRFTISRDNARSSLYLEMDSLRSEDTATYYCTTERYYDGTYYGYWYFDFWGPGTMVTVSA
VL: GQFTLTQPKSVSGSLRSTITIPCVRSSGDIGDRYVSWYQQRLGRPPLNVIYAADQRPSEVSDRFSGSIDSSSNSASLTITDLQMDDEADYFCQSYDSNIDIVFGGGTKLEIKR
notes: Rat IgG2a, lambda
For B1, the EC50 [1] was 0.2 nM, the EC50 [2] was 0.5 nM and the IC50 [3] was ~0.3 nM. The IC50 [4] was ~0.8 nM, the EC50 [5] was 0.04 nM and the “IC50, HGF-induced DU145 cell scatter” value [6] was ~0.24 nM. The “IC50, HGF-induced phosphorylation of MET Tyr1234/Tyr1235, ELISA, A549 cells” value [6] was ~0.09 nM, the “IC50, MET Tyr1234/Tyr1235 phosphorylation, ELISA, U87MG cells” value [6] was ~0.044 nM and the “IC50, tumor cell proliferation with HGF, A549 cells” value [6] was ~4.4 nM. The “IC50, tumor cell proliferation with HGF, U87MG cells” value [6] was ~19 nM and the “IC50, tumor cell proliferation with HGF, H596 cells” value [7] was ~0.2 nM.

B2: Ab238 (antibody, rat IgG2a, V domains shown)
VH: QVTLKESGPGILQPSQTLSLTCTFSGFSLSTYGMGVAWIRQPSGKDLEWLANIWWDDVNYSNPSLKNRLTISKDTSNNQVFLQITNVDTAETATYYCARIGTSHIVDAWGQGASVTVSA
VL: DIRMTQSPASLSASLGETVNIECLASEDIYSDLAWYQQKPGKSPQLLIYNANTLQNGVPSVFSGSGSGTQYSLKINNLHSEDVATYFCQQYNNYPPTFGGGTKLEIKR
notes: Rat IgG2a, kappa
Work on B2 yielded an EC50 [1] of 0.3 nM, an EC50 [2] of 0.7 nM and an IC50 [3] of ~0.4 nM. The IC50 [4] was ~1 nM, the EC50 [5] was 0.09 nM and the “IC50, HGF-induced DU145 cell scatter” value [6] was ~1.4 nM. For the same binder, the “IC50, HGF-induced phosphorylation of MET Tyr1234/Tyr1235, ELISA, A549 cells” value [6] was ~0.093 nM, the “IC50, MET Tyr1234/Tyr1235 phosphorylation, ELISA, U87MG cells” value [6] was ~0.029 nM and the “IC50, tumor cell proliferation with HGF, A549 cells” value [6] was ~4.8 nM. For the same binder, the “IC50, tumor cell proliferation with HGF, U87MG cells” value [6] was ~25 nM and the “IC50, tumor cell proliferation with HGF, H596 cells” value [7] was ~0.2 nM.
